Assay [1] has as its target murine M1 muscarinic acetylcholine receptor (Mus musculus, UniProt P12657). Briefly: Intracellular calcium assay in CHO-M1 cells (1536-well, FDSS-7000). The settings on record: read-out: IC50, Calcium Assay, LOPAC qHTS, 15 concentrations, antagonist mode with EC80 carbachol. (In general: Calcium flux is commonly read through the fluorescence of an indicator in the cells.)

Chains of the proteins cited; added tags and fusions are not shown. Lines headed by an entry give the natural chain unless they say otherwise; changes in a name come on top.
UniProt P12657: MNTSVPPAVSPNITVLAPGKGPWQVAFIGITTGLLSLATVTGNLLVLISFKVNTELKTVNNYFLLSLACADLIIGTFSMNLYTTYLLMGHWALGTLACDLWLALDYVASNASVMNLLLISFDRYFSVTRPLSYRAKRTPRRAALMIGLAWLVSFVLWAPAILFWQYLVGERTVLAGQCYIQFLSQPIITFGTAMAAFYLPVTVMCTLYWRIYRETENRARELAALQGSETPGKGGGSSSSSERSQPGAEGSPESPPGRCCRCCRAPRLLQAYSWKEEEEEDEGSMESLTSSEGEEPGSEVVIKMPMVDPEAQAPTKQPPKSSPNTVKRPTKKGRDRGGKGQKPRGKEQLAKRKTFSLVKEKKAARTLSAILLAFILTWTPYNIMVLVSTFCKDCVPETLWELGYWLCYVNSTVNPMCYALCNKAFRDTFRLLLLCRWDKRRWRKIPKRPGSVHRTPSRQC
UniProt P08482: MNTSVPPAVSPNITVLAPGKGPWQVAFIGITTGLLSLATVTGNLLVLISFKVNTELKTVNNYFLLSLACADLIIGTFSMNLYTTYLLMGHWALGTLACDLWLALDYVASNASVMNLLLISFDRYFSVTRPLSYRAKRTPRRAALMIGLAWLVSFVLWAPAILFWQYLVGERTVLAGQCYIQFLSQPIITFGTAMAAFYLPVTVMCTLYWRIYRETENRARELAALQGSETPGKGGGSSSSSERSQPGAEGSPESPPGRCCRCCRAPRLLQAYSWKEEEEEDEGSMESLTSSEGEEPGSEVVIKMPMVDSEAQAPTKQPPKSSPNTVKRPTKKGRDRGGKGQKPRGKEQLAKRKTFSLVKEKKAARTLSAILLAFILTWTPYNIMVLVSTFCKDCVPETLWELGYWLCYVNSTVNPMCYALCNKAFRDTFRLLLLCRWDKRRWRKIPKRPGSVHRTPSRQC

The target in assay [2] is murine M1 muscarinic acetylcholine receptor (Rattus norvegicus, UniProt P08482). Briefly: HTRF IP-One assay in CHO-M1 cells (1536-well). The conditions noted are these: read-out: IC50, IP-One Assay, LOPAC qHTS, 15 concentrations, antagonist mode with EC80 carbachol. (TR-FRET usually uses a lanthanide donor and a delayed reading to cut background.)

As to 4-DAMP mustard hydrochloride, the IC50 in assay [1] came to 0.1 µM. In the case of “N,N,N-trimethyl-1-(4-trans-stilbenoxy)-2-propylammonium”, the IC50 in assay [1] was determined as 3.98 µM; in assay [2] it was 7.94 µM.

Values taken from publication PMC2774619 (Current Chemical Genomics, 2008).
